Results on one molecule are retold here after patent US20240398816A1, “Gel Treatment for Loss of Taste and Smell” (Cyrano Therapeutics, Inc., priority 2021, published 2024).

The assay deals with patient who had loss of taste and smell from COVID-19.
The mark [1] stands for this setting: 3 months after initial administration, 80 μg theophylline nasal spray once per day, Pre 10.
[2] abbreviates: 3 months after initial administration, 80 μg theophylline nasal spray once per day, Pre 11.
The mark [3] stands for this setting: 3 months after initial administration, 80 μg theophylline nasal spray once per day, Pre 12.

Consider `Cn1c(=O)c2[nH]cnc2n(C)c1=O` [Theophylline], for which, under setting [1], the “Detection threshold (DT), thiophene (Thio)” value came to 4 bottle units and the “Recognition threshold (RT), thiophene (Thio)” value is reported as 4 bottle units. Further, under setting [2], the “Detection threshold (DT), amyl acetate (AA)” value is given as 4 bottle units; the “Detection threshold (DT), nitrobenzene (NO2B)” value worked out at 9 bottle units; the “Recognition threshold (RT), pyridine (Pyr)” value worked out at 7 bottle units. Further, the “Detection threshold (DT), pyridine (Pyr)” value (3 months after initial administration, 80 μg theophylline nasal spray once per day, Pre 11, 5 or lower normal) is given as 7 bottle units. Besides, under setting [3], the “Recognition threshold (RT), amyl acetate (AA)” value was determined as 4 bottle units and the “Recognition threshold (RT), nitrobenzene (NO2B)” value was determined as 9 bottle units. In addition, where the note is “3 months vs baseline”, the “Detection threshold and recognition threshold in all four odorant tests” value was “improved”; the “Factor by which the detectable concentration of AA was lower” value turned out to be 108. Besides, the “Improvement of recognition threshold (RT) of AA” value (3 months vs baseline, equivalent to 8 orders of magnitude) is 8 bottle units.
